Assay results as given in patent publication US10300066B2, “Polyfluorinated compounds acting as bruton tyrosine kinase inhibitors” (ZHEJIANG DTRM BIOPHARMA CO. LTD., priority 2014, dated 2019).

Assay: 28-day toxicokinetic (TK) study in rats
Format: in vivo, rat
Conditions: same dose of 40 mg/kg in rats on day 1

With C=CC(=O)N1CC[C@@H](n2nc(-c3ccc(Oc4c(F)c(F)cc(F)c4F)cc3F)c3c(N)ncnc32)C1 [Compound 45, 1-((R)-3-(4-amino-3-(2-fluoro-4-(2,3,5,6-tetrafluorophenoxy)phenyl)-1H-pyrazolo[3,4-d]pyrimidin-1-yl)pyrrolidin-1-yl)prop-2-en-1-one] as the compound, how does the “Exposure relative to ibrutinib” value read?
Its value is 5- to 14 fold.
